Protein sequences, listed by entry. Tags and fused reporters are not part of them. Lines headed by an entry give the natural chain unless they say otherwise; changes in a name come on top.
UniProt P35563, whole entry: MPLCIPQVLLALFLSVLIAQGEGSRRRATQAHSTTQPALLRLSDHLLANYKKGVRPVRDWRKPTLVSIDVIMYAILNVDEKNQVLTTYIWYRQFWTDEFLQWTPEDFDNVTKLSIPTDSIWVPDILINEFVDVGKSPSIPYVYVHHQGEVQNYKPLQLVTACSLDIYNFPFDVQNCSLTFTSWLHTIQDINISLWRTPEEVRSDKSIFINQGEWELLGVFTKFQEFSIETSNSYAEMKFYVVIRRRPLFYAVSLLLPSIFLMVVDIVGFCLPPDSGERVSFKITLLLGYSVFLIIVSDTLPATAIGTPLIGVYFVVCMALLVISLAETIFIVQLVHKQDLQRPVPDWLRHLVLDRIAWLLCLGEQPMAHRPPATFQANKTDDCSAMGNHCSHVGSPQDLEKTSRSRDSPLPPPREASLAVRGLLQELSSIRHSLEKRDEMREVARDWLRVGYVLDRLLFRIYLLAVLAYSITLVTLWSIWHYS
UniProt Q9JJ16: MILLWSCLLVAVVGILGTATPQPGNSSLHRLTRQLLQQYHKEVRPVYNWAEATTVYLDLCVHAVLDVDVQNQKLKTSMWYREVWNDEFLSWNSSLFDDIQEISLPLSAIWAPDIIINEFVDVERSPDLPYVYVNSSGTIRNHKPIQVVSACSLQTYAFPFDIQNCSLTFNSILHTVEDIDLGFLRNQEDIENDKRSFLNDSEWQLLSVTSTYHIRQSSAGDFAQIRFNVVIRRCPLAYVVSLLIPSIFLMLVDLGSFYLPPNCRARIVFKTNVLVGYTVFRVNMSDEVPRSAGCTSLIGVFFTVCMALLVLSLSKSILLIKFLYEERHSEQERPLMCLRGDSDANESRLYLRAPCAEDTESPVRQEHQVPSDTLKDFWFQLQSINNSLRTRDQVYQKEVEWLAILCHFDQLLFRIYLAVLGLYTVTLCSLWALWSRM
UniProt Q62758: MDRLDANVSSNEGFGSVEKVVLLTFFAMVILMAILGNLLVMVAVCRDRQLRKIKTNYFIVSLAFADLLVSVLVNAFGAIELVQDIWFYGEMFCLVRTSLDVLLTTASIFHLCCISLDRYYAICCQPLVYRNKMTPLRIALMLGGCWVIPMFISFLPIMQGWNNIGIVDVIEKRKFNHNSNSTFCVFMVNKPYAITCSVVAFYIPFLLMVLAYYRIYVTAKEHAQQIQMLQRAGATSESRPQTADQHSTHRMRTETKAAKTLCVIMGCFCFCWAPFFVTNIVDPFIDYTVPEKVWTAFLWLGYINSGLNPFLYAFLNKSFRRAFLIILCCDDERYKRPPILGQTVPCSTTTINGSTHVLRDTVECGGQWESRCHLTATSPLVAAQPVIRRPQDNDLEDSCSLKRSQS

In ChEMBL document CHEMBL1130223 (J Med Chem, 1997):

Tests used:
[1] = target: Serotonin 3 (5-HT3) receptor (Rattus norvegicus, UniProt P35563+Q9JJ16); test: Inhibition of [3H]BRL-43694 binding to 5-hydroxytryptamine 3 receptor of rat cortical homogenate.
[2] = target: 5-hydroxytryptamine receptor 4 (Rattus norvegicus, UniProt Q62758); test: Inhibition of radiolabeled [3H]GR-113808 ligand binding to 5-hydroxytryptamine 4 receptor

SMILES: NCCc1c[nH]c2ccc(O)cc12 [SEROTONIN]
- IC50 [1]: 0.727 µM
- IC50 [2]: 0.147 µM
